Experimental data as given in patent US10010623B2, “Lysosome-cleavable linker” (UCL Business PLC, priority 2012, dated 2018).

Test: Disassembly of the thiomaleamic acid linker / release of doxorubicin in acidic pH, LCMS
Format: physicochemical
Details: pH 4.5 (50 mM citric acid, 150 mM NaCl), 37° C., over 72 h
Procedure: The material was incubated for 20 h at 37° C. and complete hydrolysis confirmed by LCMS. The resulting thiomaleamic acid construct was then transferred into a pH 4.0 or pH 5.0 buffer (50 mM citric acid, 150 mM sodium chloride) on PD MiniTrap G-25 desalting columns and the eluate concentrated with ultrafiltration columns (5 kDa MWCO, Sartorius).
The samples were incubated at 37° C. and aliquots withdrawn and analysed by LCMS after 0.5, 2, 5, 24 and 48 h.
The anti-CEA-DOX conjugate was prepared as described and purified on PD MiniTrap G-25 desalting columns. The material was incubated for 20 h at 37° C. and complete hydrolysis to the desired thiomaleamic acid construct confirmed by LCMS (required mass 27,528 Da). The buffer-pH (PBS, pH 7.4) was then changed to pH 4.5 (50 mM citric acid, 150 mM sodium chloride) via PD MiniTrap G-25 desalting columns and the eluate concentrated with ultrafiltration columns (5 kDa MWCO).
The thiomaleamic acid construct was incubated at 37° C. and aliquots analysed after 0.5, 2, 5, 24 and 48 h by LCMS. […] The appearance of free doxorubicin could be monitored in addition to the anti-CEA maleic acid.
Trastuzumab-Fab-DOX conjugate 2 was prepared as described. […] The antibody conjugate was incubated at 37° C. and aliquots were analysed after 2, 6, 24, 48 and 72 h by LCMS.

Trastuzumab-Fab-DOX conjugate 2
conversion to Trastuzumab-Fab-maleic anhydride with release of doxorubicin: quantitative conversion
